Common to all, as to format: cell-based
In assay [1] the test system is DU145-SLFN11 KO (CRISPR-Cas9 gene knockout of SLFN11). Nature of the assay: Nuclear cell count growth inhibition, 4 to 8 days (Example 4). The settings on record: Prostate, HER2 Low, monotherapy. The method, then:
(§1) Cells grown in their respective conditions were plated in 96-well plates at optimal density to allow linear proliferation for the duration of the assay (4 to 8 days; duration of treatment is dependent on the growth rate of each cell line). Immediately after plating, the cells were dosed with the indicated compounds for a total volume of 200 µL/well and placed in the incubator. Combinations were conducted as a 6 × 8 concentration response matrix for each combination. At the endpoint, the cells were fixed in 2% PFA for 20 minutes at room temperature. In order to obtain the number of cells at the start of treatment, one additional plate was used for each experiment and fixed after cells attached. The cells were then permeabilised in 0.5% Triton-X100 in PBS for 10 minutes. After a PBS wash, the cells were blocked in 5% FBS in PBS 1h at RT and incubated with primary antibodies in 5% FBS + 0.05% triton overnight at 4° C. After 3 washes in PBS cells were incubated with secondary antibodies in 5% FBS + 0.05% triton with Hoechst33258 for 1h at room temperature. After 3 washes in PBS, the cells were scanned with a Cellinsight instrument with a 10× objective and 9 fields/well. Images were analysed using Columbus for cell count based on nuclear Hoechst staining and nuclear intensity of other biomarkers investigated. The total cell count/well was used to calculate the relative growth in each well compared to solvent control. […] The mean/well of the sum of the nuclear intensity of the IF biomarkers was also expressed relative to solvent control.

The test system of the next assay is DU145. The assay is described as above. The settings on record: DU145, Prostate, HER2 Low; monotherapy. The method, then:
as §1

The test system of another assay is NCI-N87. Described as above. Particulars: NCI-N87, Gastric, HER2 High; monotherapy. The method, then: as §1
The next assay has as its system KPL4. Nature of the assay: Nuclear cell count growth inhibition / synergy and IF biomarkers, 4 to 8 days (Example 4). The method, then: as §1
Another assay has as its system MDA-MB-468. The description is as above. The settings on record: MDA-MB-468, Breast, HER2 Low; monotherapy. As for the experimental part: as §1
Another assay has as its system JIMT-1. In words: Nuclear cell count growth inhibition / synergy, 4 to 8 days (Example 4). The settings on record: JIMT-1, Breast, HER2 Expressed; monotherapy. As for the experimental part:
(§2) Cells grown in their respective conditions were plated in 96-well plates at optimal density to allow linear proliferation for the duration of the assay (4 to 8 days; duration of treatment is dependent on the growth rate of each cell line). Immediately after plating, the cells were dosed with the indicated compounds for a total volume of 200 µL/well and placed in the incubator. Combinations were conducted as a 6 × 8 concentration response matrix for each combination. At the endpoint, the cells were fixed in 2% PFA for 20 minutes at room temperature. In order to obtain the number of cells at the start of treatment, one additional plate was used for each experiment and fixed after cells attached. The cells were then permeabilised in 0.5% Triton-X100 in PBS for 10 minutes. After a PBS wash, the cells were blocked in 5% FBS in PBS 1h at RT and incubated with primary antibodies in 5% FBS + 0.05% triton overnight at 4° C. After 3 washes in PBS cells were incubated with secondary antibodies in 5% FBS + 0.05% triton with Hoechst33258 for 1h at room temperature. After 3 washes in PBS, the cells were scanned with a Cellinsight instrument with a 10× objective and 9 fields/well. Images were analysed using Columbus for cell count based on nuclear Hoechst staining and nuclear intensity of other biomarkers investigated. […]

Another assay relates to SK-OV-3. Described as above. Particulars: SK-OV-3, Ovarian, HER2 Moderate; monotherapy. As for the experimental part: as §2
In assay [2] the test system is ATR pathway in KPL4 (breast carcinoma) cells. Nature of the assay: Antibody blots of ATR signaling (Example 6). The settings on record: DS-8201 at 30 µg/mL or exatecan mesylate alone, 7 h, 24 h or 48 h. As for the experimental part: (§3) Gastric cancer NCI-N87 and breast carcinoma KPL4 cell lines were cultured in RPMI 1640 supplemented with 10 % FCS in a humidified incubator at 37° C. with 5% CO2. Cells were plated in 6-well plates at optimal density to allow linear proliferation for the duration of the assay. […] 7 h, 24 h or 48 h after dosing, whole-cell extracts were obtained by lysis in 50 mM Tris-HC1 pH 7.5, 2% SDS containing protease and phosphatase inhibitors. Lysates were boiled for 5 minutes at 95° C. Protein concentration was measured using a Nanodrop at […] and 50 µg of lysate were loaded in 4-12% Bis Tris gels. Proteins were transferred using iblot2. Primary antibodies (see Table 7) were incubated overnight at 4° C. in 3% milk TBS-tween 0.05% and HRP-conjugated secondary antibodies for 1h at room temperature. Blots were imaged using a G-box.

In assay [3] the test system is ATR pathway in NCI-N87 (gastric cancer) cells. Nature of the assay: Antibody blots of ATR signaling (Example 6). The settings on record: DS-8201 at 30 µg/mL or exatecan mesylate alone, 7 h, 24 h or 48 h. As for the experimental part:
as §3

The GI50 is the concentration giving 50% growth inhibition. Regarding “DS-8201: anti-HER2 antibody-drug conjugate: exatecan-derivative drug-linker conjugated to anti-HER2 antibody via a thioether bond; DAR 7.7 or 7.8”, the GI50 in assay [1] was 17.08 µg/mL; in the assay with DU145, 18.361 µg/mL; with NCI-N87 it was 0.019 µg/mL; in the assay on KPL4 (KPL4, Breast, HER2 High, monotherapy) it was 0.044 µg/mL; in the assay on MDA-MB-468, 3.367 µg/mL; in the assay with JIMT-1, 22.609 µg/mL. Further, in the assay with SK-OV-3, the GI50 worked out at 4.674 µg/mL. Moreover, the “Biomarkers of ATM (KAP1 pSer824) activation and DNA strand breaks (γH2AX)” value in the assay on KPL4 (KPL4, single agent) is “induced in a concentration dependent manner”. Also, the “ATR pathway (pATR-T1989, pChk1-S345) and cell cycle arrest (pCdc2-Y15)” value in assay [2] and in [3] was “induced activation of the ATR pathway” throughout.

Values taken from patent US20230330243A1, “COMBINATION OF ANTIBODY-DRUG CONJUGATE AND ATR INHIBITOR” (Daiichi Sankyo Company, Limited, priority 2020, published 2023).
